Measured values as given in ChEMBL document CHEMBL3997814, “Identification of novel inverse agonists of estrogen-related receptors ERRγ and ERRβ” (Bioorg Med Chem, 2017).

Target: T1, Steroid hormone receptor ERR2 (Homo sapiens, UniProt O95718)
T1 sequence (O95718 whole entry): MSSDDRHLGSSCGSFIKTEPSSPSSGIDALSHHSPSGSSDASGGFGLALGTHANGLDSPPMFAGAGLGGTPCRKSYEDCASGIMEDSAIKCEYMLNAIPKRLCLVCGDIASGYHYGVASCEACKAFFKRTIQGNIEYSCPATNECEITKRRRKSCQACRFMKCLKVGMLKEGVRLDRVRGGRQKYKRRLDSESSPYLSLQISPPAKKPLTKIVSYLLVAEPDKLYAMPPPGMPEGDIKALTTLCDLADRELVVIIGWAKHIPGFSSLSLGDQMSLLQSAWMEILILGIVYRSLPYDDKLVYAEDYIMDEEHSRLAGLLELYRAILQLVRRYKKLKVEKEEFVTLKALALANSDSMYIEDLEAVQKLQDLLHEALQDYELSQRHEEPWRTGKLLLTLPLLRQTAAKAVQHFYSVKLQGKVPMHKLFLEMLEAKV

Which IC50 does the source give for CN(C)CCOc1ccc(/C(=C(/CCCO)c2ccccc2)c2ccc(O)cc2)cc1 here?
The IC50 was 3.5 µM.
